8 molecules from ChEMBL document CHEMBL4715803, “Synthetic Studies of Neoclerodane Diterpenes from Salvia divinorum: Identification of a Potent and Centrally Acting μ Opioid Analgesic with Reduced Abuse Liability” (J Med Chem, 2016) can be followed below.

Experiment [1] is filed under the species Homo sapiens. As to the kind of experiment: Selectivity ratio of EC50 for agonist activity at human delta opiod receptor expressed in CHO-K1 cells to EC50 for agonist activity at human mu opiod receptor expressed in CHO-K1 cells. In kind it is cell-based.
The species named for experiment [2] is Homo sapiens. Put plainly: Selectivity ratio of EC50 for agonist activity at human kappa opiod receptor expressed in CHO-K1 cells to EC50 for agonist activity at human mu opiod receptor expressed in CHO-K1 cells. It counts as cell-based.

As to `COC(=O)[C@@H]1C=C(OC(=O)c2cccc(OC)c2)C(=O)[C@H]2[C@@]1(C)CC[C@H]1C(=O)O[C@H](c3ccoc3)C[C@]21C`, the Ratio EC50 in experiment [1] came to 56. For `COC(=O)[C@@H]1C=C(OC(=O)c2ccc(F)cc2)C(=O)[C@H]2[C@@]1(C)CC[C@H]1C(=O)O[C@H](c3ccoc3)C[C@]21C`, the Ratio EC50 in experiment [1] is 23; in experiment [2] it was 17.

On to `COC(=O)[C@@H]1C=C(OC(=O)c2ccccc2F)C(=O)[C@H]2[C@@]1(C)CC[C@H]1C(=O)O[C@H](c3ccoc3)C[C@]21C`, for which the Ratio EC50 in experiment [1] is 37; in experiment [2], 33. With `COC(=O)[C@@H]1C=C(OC(=O)c2ccc(C)cc2)C(=O)[C@H]2[C@@]1(C)CC[C@H]1C(=O)O[C@H](c3ccoc3)C[C@]21C`, the Ratio EC50 in experiment [1] worked out at 17.

Regarding `COC(=O)[C@@H]1C=C(OC(=O)c2ccc([N+](=O)[O-])cc2)C(=O)[C@H]2[C@@]1(C)CC[C@H]1C(=O)O[C@H](c3ccoc3)C[C@]21C`, the Ratio EC50 in experiment [1] came to 25. Take `COC(=O)[C@@H]1C=C(OC(=O)c2ccc(Cl)cc2)C(=O)[C@H]2[C@@]1(C)CC[C@H]1C(=O)O[C@H](c3ccoc3)C[C@]21C`: the Ratio EC50 in experiment [1] turned out to be 10. For the molecule `COC(=O)[C@@H]1C=C(OC(=O)c2ccc(OC)cc2)C(=O)[C@H]2[C@@]1(C)CC[C@H]1C(=O)O[C@H](c3ccoc3)C[C@]21C`, the Ratio EC50 in experiment [1] was 15; in experiment [2] it was greater than 1200. The corresponding values for `CC(=O)O[C@@H]1C=C(OC(=O)c2cccc(F)c2)C(=O)[C@H]2[C@@]1(C)CC[C@H]1C(=O)O[C@H](c3ccoc3)C[C@]21C` are 30 and greater than 2000.
